# Assay results taken from ChEMBL document CHEMBL4130599, “VU6010608, a Novel mGlu7 NAM from a Series of N-(2-(1H-1,2,4-Triazol-1-yl)-5-(trifluoromethoxy)phenyl)benzamides” (ACS Med Chem Lett, 2017).
# Amino acid sequences for entries named in this document (tags omitted).
# UniProt P35400, whole entry: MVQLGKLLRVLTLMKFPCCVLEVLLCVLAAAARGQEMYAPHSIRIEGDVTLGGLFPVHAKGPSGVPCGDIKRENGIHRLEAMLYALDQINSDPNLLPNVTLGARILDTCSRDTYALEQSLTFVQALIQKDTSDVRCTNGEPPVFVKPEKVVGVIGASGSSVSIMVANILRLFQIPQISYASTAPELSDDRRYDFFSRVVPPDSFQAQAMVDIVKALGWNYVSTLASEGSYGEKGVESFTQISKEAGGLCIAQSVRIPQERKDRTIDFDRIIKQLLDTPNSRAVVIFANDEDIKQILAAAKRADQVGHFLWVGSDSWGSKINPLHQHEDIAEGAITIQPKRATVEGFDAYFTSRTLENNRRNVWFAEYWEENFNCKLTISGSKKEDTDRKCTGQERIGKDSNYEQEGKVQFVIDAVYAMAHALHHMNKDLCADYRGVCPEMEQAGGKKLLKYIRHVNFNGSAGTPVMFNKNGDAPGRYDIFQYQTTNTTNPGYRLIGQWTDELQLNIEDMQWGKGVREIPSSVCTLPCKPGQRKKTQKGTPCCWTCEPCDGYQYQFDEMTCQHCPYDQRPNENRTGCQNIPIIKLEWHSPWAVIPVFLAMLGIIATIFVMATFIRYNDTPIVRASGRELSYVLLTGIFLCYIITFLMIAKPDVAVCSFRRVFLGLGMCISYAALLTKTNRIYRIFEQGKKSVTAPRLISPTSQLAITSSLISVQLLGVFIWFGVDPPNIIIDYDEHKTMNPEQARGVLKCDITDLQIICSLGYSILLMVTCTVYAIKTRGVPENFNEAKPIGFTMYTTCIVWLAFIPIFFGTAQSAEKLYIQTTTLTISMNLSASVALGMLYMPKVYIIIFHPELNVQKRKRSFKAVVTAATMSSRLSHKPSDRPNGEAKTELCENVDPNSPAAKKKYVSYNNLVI
# Target: Metabotropic glutamate receptor 7 (Rattus norvegicus, UniProt P35400)
# Assay: Negative allosteric modulation of rat mGlu7 expressed in HEK cells co-expressing Galpha15 assessed as reduction in L-AP4-induced intracellular calcium flux pretreated for 142 secs followed by glutamate addition and subsequent stimulation of L-AP4 for 40 secs by Fluo-4 AM dye based fluorescence assay
# Type: functional, cell-based
row,IC50 [nM],Structure (SMILES)
1,510,CCOc1ccc(C(=O)Nc2cc(OC(F)(F)F)ccc2-n2cncn2)cc1OC
2,780,COc1cc(C(=O)Nc2cc(OC(F)(F)F)ccc2-n2cncn2)ccc1OC(C)C

row,Structure (SMILES),IC50 [nM]
1,CCCOc1ccc(C(=O)Nc2cc(OC(F)(F)F)ccc2-n2cncn2)cc1OC,780
